Source: article PMC5469451, “Identification of compounds that suppress Toxoplasma gondii tachyzoites and bradyzoites” (PLoS ONE, 2017)

Experiments:
Vero cells = assay: Host cell cytotoxicity assay (Cell-Titer Glo), Vero cells; format: cell-based; details: 10 μM, 48 h, DMSO = 100%
Protocol: (§1) Host cells were treated with compounds at the same concentration used for screening (i.e., 0.5% DMSO and 10 μM compound). Vero cells and HFF cells were both used as host cells because both cell types were used for the parasite screening. After incubation for 48 h in DMEM supplemented with 5% FBS, L-glutamine, penicillin, and streptomycin, cell viabilities were measured by using a Cell-Titer Glo kit (Promega) following the manufacturer’s instructions. Control wells were treated with DMSO alone in culture medium to calculate the 100% viability for each cell type.

HFF cells = assay: Host cell cytotoxicity assay (Cell-Titer Glo), HFF cells; format: cell-based, human; details: 48 h
Protocol: as §1, with “Vero” for “Host cells were treated with compounds at the same concentration used for screening (i.e., 0.5% DMSO and 10 μM compound). Vero”

Sequence: PENITREM A
- Host Viability (%) (Vero cells): 79%
- Host cell viability (%) (HFF cells; 2.5 μM): 102%
- Host cell viability (%) (HFF cells; 25 μM, compared with DMSO): 34%
